Experiments:
[1] = system: T-AKT; test: T-AKT degradation in PC3 cells; format: cell-based, human; conditions: 1 μM
[2] = system: PC-3 xenografts; format: in vivo; conditions: PC3 xenograft mice, 75 mg/kg once daily IP, 22 days

For `NC1(C(=O)N[C@@H](CCN2CCN(C(=O)CCOCCOCCOCCOCCOCCNc3cccc4c3C(=O)N(C3CCC(=O)NC3=O)C4=O)CC2)c2ccc(Cl)cc2)CCN(c2ncnc3[nH]ccc23)CC1` (stereo partly drawn) [Compound 35, 4-Amino-N-((1S)-1-(4-chlorophenyl)-3-(4-(1-((2-(2,6-dioxopiperidin-3-yl)-1,3-dioxoisoindolin-4-yl)amino)-3,6,9,12,15-pentaoxaoctadecan-18-oyl)piperazin-1-yl)propyl)-1-(7H-pyrrolo[2,3-d]-pyrimidin-4-yl)piperidine-4-carboxamide], the “time to maximum AKT degradation” value [1] was “around 24 h” and the “time to substantial/significant AKT degradation” value [1] was 8 h.
With `Cc1ncsc1-c1ccc(CNC(=O)[C@@H]2C[C@@H](O)CN2C(=O)[C@@H](NC(=O)CCCCCCCCCCC(=O)N2CCN(CC[C@H](NC(=O)C3(N)CCN(c4ncnc5[nH]ccc45)CC3)c3ccc(Cl)cc3)CC2)C(C)(C)C)cc1` [Compound 20, 4-Amino-N-((S)-1-(4-chlorophenyl)-3-(4-(12-(((S)-1-((2S,4R)-4-hydroxy-2-((4-(4-methylthiazol-5-yl)benzyl)carbamoyl)pyrrolidin-1-yl)-3,3-dimethyl-1-oxobutan-2-yl)amino)-12-oxododecanoyl)-piperazin-1-yl)propyl)-1-(7H-pyrrolo[2,3-d]pyrimidin-4-yl)-piperidine-4-carboxamide] the “time to substantial/significant AKT degradation” value [1] was at most 4 h and the body weight [2] was “without significant body weight loss”.
